Experimental data from ChEMBL document CHEMBL5725942, “Benzimidazol-2-amines as MIDH1 inhibitors” (2018).

The chains behind the UniProt entries cited, without tags or fusion partners. Residues count along the entry.
UniProt O75874, 2-414 R132H limits assumed: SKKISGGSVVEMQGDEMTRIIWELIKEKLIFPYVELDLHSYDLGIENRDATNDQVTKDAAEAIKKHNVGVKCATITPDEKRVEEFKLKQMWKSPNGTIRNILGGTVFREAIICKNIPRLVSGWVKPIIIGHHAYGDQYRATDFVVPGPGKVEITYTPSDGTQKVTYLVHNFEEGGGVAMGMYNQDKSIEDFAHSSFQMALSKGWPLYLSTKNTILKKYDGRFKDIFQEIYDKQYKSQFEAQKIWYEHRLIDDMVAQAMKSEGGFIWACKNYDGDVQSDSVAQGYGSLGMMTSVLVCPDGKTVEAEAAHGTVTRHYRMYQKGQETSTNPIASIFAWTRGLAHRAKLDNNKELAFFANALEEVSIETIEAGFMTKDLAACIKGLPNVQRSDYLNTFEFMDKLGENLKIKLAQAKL

Molecular target: Isocitrate dehydrogenase [NADP] cytoplasmic (Homo sapiens, UniProt O75874, R132H)
Assay: Mutant IDH1 R132H Biochemical Assay: mIDH1 catalyzes the NADPH-dependent reduction of alpha-ketoglutarate (α-KG) to (2R)-2-hydroxyglutarate (2-HG). NADPH consumption was measured by luminescent readout.The biochemical reactions were performed at 32° C. in 384-well plates using a reaction volume of 41 μl and the following assay buffer conditions: 50 mM Tris pH 7.5, 100 mM NaCl, 20 mM MgCl2, 0.05% BSA, 0.01% Brij, 1 μM NADPH, and 250 μM α-KG. The IDH1 R132H enzyme was used in a final concentration of 1.5 nM. Test compounds were used in a concentration range between 0.002 and 10 μM. The final DMSO concentration was 2.4%.The reaction was incubated for 30 minutes, then 40 μl of detection mix (0.75 μg/ml Luciferase, 0.02 U/ml Oxidoreductase, 4 μg/ml FMN, 2 μl/ml Decanal/Ethanol, 50 mM Tris pH 7.5, 0.5% Glycerin, 0.01% Tween-20, 0.05% BSA) was added. Luminescence was measured on a luminescent reader (10 seconds measuring time, 1 second integration period, 30% sensitivity). The decrease in luminescence is proportional to mIDH1 activity. IC50 values are determined by interpolation from plots of relative luminescence versus inhibitor concentration.

| Structure (SMILES) | IC50 [µM] |
| --- | --- |
| C[C@H]1C[C@@H](n2c(Nc3ccc(OC(F)(F)F)cc3)nc3ccc(C(=O)NCC(=O)O)cc32)CC(C)(C)C1 | 10 |
| CCN(CC)C(=O)c1ccc2nc(Nc3ccc(OC(F)(F)F)cc3)n([C@H]3C[C@@H](C)CC(C)(C)C3)c2c1 (racemic) | 0.24 |
| C[C@@H]1C[C@H](n2c(Nc3ccc(OC(F)(F)F)cc3)nc3ccc(C(=O)N4CCCCC4)cc32)CC(C)(C)C1 (racemic) | 1.1 |
| C[C@@H]1C[C@H](n2c(Nc3ccc(OC(F)(F)F)cc3)nc3ccc(C(=O)NC4CCS(=O)(=O)CC4)cc32)CC(C)(C)C1 (racemic) | 10 |
